Laboratory results reported in patent publication US20160051704A1, “MOLECULAR IMAGING PROBES FOR LUNG CANCER INTRAOPERATIVE GUIDANCE” (H. Lee Moffitt Cancer Center and Research Institute, Inc., priority 2013, published 2016).

Target: T1, delta opioid receptor (δOR) on HCT-116/δOR cells, P41143
T1 chain: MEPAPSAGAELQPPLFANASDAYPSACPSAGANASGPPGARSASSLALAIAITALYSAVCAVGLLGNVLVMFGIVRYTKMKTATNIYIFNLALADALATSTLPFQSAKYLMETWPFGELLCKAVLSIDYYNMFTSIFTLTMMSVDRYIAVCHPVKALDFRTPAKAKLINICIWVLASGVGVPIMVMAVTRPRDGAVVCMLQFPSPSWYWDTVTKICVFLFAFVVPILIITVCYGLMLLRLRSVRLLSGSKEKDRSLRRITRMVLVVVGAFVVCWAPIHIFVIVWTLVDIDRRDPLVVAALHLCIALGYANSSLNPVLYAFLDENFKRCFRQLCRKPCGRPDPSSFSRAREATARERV
Assay: in cyto time-resolved fluorescence saturation binding on HCT-116/δOR cells

## YCGFC (modifications not checked) [Europium (Eu)-diethylenetriaminepentaacetic acid (DTPA)[D-Pen2, L-Cys5] enkephalin (DPLCE)]
  Kd: 51.8 nM
